{
  "source": "ChEMBL document CHEMBL3259737",
  "about": "“Lead optimization studies of cinnamic amide EP2 antagonists” (J Med Chem, 2014)",
  "assay": "physchem",
  "conditions": "buffer, pH 7.4",
  "data": [
    {"smiles": "COc1cc(/C=C/C(=O)NCCn2c(C(F)(F)F)cc3ccccc32)cc(OC)c1OC", "values": [
      {"measurement": "solubility kinetic", "result": 27, "unit": "µM"}
    ]}
  ]
}
